Patent CN107488231A (UNIV SICHUAN, dated 2017)

Amino acid sequences for entries named in this document (tags omitted). Chains listed by the source or under a name are the forms on record and can include a tag or linker. Residues count along the entry.
UniProt P13591, 20-858: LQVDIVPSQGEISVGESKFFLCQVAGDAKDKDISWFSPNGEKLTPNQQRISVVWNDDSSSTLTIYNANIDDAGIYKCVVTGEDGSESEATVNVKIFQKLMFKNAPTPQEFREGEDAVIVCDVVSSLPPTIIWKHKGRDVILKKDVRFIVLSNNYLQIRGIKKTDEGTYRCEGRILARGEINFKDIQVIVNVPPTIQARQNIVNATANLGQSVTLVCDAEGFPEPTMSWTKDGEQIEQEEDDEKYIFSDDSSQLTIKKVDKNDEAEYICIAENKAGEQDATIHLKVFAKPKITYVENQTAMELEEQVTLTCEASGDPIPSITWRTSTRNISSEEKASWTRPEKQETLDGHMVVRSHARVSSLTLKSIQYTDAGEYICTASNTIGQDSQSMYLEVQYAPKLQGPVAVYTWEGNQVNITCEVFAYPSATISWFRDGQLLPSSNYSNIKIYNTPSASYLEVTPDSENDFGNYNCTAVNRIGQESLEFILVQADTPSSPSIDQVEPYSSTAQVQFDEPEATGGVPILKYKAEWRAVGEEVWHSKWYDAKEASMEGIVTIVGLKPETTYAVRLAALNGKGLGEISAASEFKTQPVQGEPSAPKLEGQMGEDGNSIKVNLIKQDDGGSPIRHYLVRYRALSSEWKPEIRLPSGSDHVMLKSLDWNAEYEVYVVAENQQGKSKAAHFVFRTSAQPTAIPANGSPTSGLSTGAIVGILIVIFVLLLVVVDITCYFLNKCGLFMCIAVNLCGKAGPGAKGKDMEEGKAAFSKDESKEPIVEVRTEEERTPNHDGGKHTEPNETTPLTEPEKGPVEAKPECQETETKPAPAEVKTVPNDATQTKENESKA
UniProt P13591, other isoform, or with tags, fused parts or gaps limits assumed: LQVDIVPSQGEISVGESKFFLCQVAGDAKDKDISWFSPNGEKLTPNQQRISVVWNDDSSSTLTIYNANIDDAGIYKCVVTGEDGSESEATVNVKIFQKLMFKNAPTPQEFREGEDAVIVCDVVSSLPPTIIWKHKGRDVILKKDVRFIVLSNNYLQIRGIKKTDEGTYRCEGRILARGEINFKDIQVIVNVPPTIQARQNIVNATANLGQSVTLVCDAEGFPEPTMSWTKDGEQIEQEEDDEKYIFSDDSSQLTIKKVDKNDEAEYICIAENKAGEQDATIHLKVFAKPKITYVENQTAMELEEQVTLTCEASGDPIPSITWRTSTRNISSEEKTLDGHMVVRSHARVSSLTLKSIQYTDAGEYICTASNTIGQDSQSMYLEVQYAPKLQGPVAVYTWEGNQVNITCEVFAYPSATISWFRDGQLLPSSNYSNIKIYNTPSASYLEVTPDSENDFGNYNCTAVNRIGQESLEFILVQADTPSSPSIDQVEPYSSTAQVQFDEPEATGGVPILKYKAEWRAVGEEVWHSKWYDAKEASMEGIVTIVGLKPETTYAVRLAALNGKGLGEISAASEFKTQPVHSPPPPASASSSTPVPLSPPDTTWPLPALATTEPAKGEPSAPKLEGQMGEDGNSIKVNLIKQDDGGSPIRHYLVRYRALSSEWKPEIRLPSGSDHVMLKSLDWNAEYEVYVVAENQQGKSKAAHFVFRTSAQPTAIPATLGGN

What was measured:
[1] = molecular target: CD56 of CD56-positive human small cell lung cancer cell lines (NCI-H526, NCI-H524, NCI-H69, NCI-H446) (human, UniProt P13591 20-858); assay: cell-based or functional assay
[2] = molecular target: T1, Recombinant Human NCAM-1/CD56 120 isoform (human, UniProt P13591-3 20-741, limits assumed); assay: Biacore SPR, antigen amine-coupled to CM5 chip, antibody as analyte, 1:1 model
T1 construct: the result sentence of the same paragraph calls the antigen CD56ECD

IC50, CCK-8抗增殖实验 (NCI-H69) [1]: 969 nM
IC50, CCK-8抗增殖实验 (NCI-H526) [1]: 792 nM
Kd [2]: < 0.00078 nM
koff [2]: < 1e-07 s⁻¹
kon [2]: 127000 M⁻¹ s⁻¹
B1: 抗CD56抗体Promiximab(普偌米昔) (antibody, V domains shown)
VH: EIQLQQSGPELVKPGASVKVSCKASGYAFTNYNMYWMKQSHGKSLEWIGYIDPYNGGTRYNQKFKGKATLTVDKSSSTAYMHLNSLTSEDSAVYYCAREDSTGYWGQGTTLTVSS
VL: DVLLTQTPLSLPVSLGDQASISCRSSQNILHSNGNTYFEWYLQKPGQSPKLLIYKVSNRFSGVPDRFSGSGSGTDFTLKISRVEAEDLGVYYCFQGSHVPFTFGGGTKLEIKR
